1 substance from publication PMC8219695 (Nature Communications, 2021) can be followed below.

By UniProt entry, the sequences of proteins in these tests, tags left out.
UniProt P32300, whole entry: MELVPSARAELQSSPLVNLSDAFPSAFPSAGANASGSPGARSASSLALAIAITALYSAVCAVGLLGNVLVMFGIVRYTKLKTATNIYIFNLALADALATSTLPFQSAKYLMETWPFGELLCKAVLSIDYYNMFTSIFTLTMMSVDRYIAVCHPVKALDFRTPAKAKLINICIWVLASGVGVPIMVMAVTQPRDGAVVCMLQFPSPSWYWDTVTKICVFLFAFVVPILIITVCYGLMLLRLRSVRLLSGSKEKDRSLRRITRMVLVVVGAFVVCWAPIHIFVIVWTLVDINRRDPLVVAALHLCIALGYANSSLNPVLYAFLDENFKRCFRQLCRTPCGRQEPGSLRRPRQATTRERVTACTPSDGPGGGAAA
UniProt P41143, whole entry: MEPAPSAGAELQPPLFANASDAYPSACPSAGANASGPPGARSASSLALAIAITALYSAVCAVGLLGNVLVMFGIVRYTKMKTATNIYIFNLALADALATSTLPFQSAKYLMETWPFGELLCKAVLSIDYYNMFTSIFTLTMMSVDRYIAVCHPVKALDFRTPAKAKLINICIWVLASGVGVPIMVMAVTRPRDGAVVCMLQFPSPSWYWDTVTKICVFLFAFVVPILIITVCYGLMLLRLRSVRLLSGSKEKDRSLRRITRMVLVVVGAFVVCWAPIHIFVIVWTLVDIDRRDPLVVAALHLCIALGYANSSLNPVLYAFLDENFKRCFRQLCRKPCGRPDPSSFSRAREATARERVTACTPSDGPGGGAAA

Where “and” joins values, the source holds several entries; their conditions need not be identical. Equal values may be shown once.

Holding throughout (assay type): cell-based
Assay [1] has as its target T1, mDOR (Mus musculus, UniProt P32300).
T1 construct: expressed in transfected cells
In words: CAMYEL BRET cAMP agonist assay at mDOR. As to conditions: single replicate values, Supplementary Figure 7B. A general note: BRET reads energy transfer from a luciferase to a nearby fluorophore.

Assay [2] deals with T1, mDOR. In words: CAMYEL BRET antagonism assay at mDOR (inhibition of DPDPE). The settings on record: plotted at Log[drug] (M) -13, individual replicates, Supplementary Figure 9B source data.
The target of the next assay is hDOR (Homo sapiens, UniProt P41143). The assay can be described thus: CAMYEL BRET cAMP agonist assay at hDOR. As to conditions: single replicate values, Supplementary Figure 7A.

For the substance DPDPE, the “Agonist activity of 7OH analogs at mDOR” value is 119.19 and 109.156 and 98.1208 and 104.346 and 101.157 and 103.483 and 100.727 and 108.147 and 112.465 on mDOR [1] (Log[drug] (M) -5); 101.655 and 79.1185 and 100.475 and 106.537 and 91.4269 and 94.0755 and 101.126 and 96.8592 and 102.652 at mDOR [1] (Log[drug] (M) -6); 95.0806 and 91.0111 and 103.453 and 93.961 and 98.0117 and 103.021 and 95.8382 and 97.1021 and 100.993 at mDOR [1] (Log[drug] (M) -7); 105.195 and 94.1471 and 96.3086 and 90.4519 and 89.1321 and 103.669 and 83.6346 and 78.8229 and 100.044 on mDOR [1] (Log[drug] (M) -8); 46.9294 and 45.7767 and 76.3287 and 53.6511 and 52.3859 and 73.0815 and 60.7072 and 52.0168 and 72.5939 on mDOR [1] (Log[drug] (M) -9); 29.7658 and 40.9166 and 50.1794 and 8.654 and 16.754 and 18.7171 and 18.4805 and 17.9456 and 21.8293 on mDOR [1] (Log[drug] (M) -10). For the same substance, the “Agonist activity of 7OH analogs at mDOR” value on mDOR [1] (Log[drug] (M) -11) is 16.2882 and 8.249 and 12.8768 and 11.2547 and 11.0168 and -2.748 and 1.65 and -1.714 and 0.06337; on mDOR [1] (Log[drug] (M) -13) it was 6.062 and -10.7876 and 4.726 and -0.597 and -1.448 and 2.045 and 1.667 and -1.765 and 4.269. Also, at mDOR [2], the “Response to EC80 DPDPE alone at the mDOR (raw signal)” value is 0.2216 and 0.2105 and 0.2076 and 0.126 and 0.1112 and 0.1106 and 0.05315 and 0.03581 and 0.04465 and 0.205 and 0.2119 and 0.2059 and 0.121 and 0.1155 and 0.112 and 0.06785 and 0.05977 and 0.04072 and 0.2098 and 0.2092 and 0.2107 and 0.1208 and 0.1136 and 0.1212 and 0.06027 and 0.04949 and 0.05384. Moreover, the “Agonist activity of 7OH analogs at hDOR” value is 108.464 and 116.733 and 109.409 and 107.309 and 104.622 and 104.376 and 108.121 and 116.428 and 106.246 at hDOR (Log[drug] (M) -5); 107.84 and 82.4366 and 97.7793 and 99.1324 and 98.9503 and 90.0975 and 107.763 and 95.4669 and 100.614 on hDOR (Log[drug] (M) -6); 94.8616 and 92.4318 and 96.8308 and 106.185 and 103.126 and 93.534 and 95.6914 and 92.7933 and 91.4728 on hDOR (Log[drug] (M) -7); 91.1521 and 73.5219 and 77.5788 and 74.9379 and 76.598 and 76.1993 and 70.9318 and 69.6207 and 90.2955 at hDOR (Log[drug] (M) -8); 42.5842 and 37.0905 and 48.5956 and 40.7398 and 32.6551 and 43.8472 and 51.7146 and 40.9404 and 43.2179 at hDOR (Log[drug] (M) -9); 11.4658 and 18.4337 and 23.7987 and 13.5265 and 2.85 and 5.566 and 4.73 and 10.4421 and 11.1259 on hDOR (Log[drug] (M) -10). For the same substance, the “Agonist activity of 7OH analogs at hDOR” value was 6.089 and 3.346 and 1.897 and 10.798 and 3.8891 and 0.8973 and 3.181 and -6.329 and 3.148 on hDOR (Log[drug] (M) -11); -3.358 and -1.52 and 4.878 and -0.5328 and -3.5715 and 4.104 and 5.632 and 2.365 and -3.638 at hDOR (Log[drug] (M) -13).
